Earlier results, collected in US20230218693A1, “HEMP SPROUT PRODUCTS AND METHODS FOR PRODUCING SAME” (priority 2020, published 2023).

Target: T1, mPGES-1 (Homo sapiens, UniProt O14684)
T1 sequence (O14684 1-152): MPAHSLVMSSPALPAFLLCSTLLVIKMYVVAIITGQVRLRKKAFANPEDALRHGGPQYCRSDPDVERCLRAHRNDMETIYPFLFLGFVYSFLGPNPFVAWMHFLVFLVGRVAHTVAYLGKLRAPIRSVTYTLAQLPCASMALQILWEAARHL
Details: mPGES-1, cell-free; 10 μM

In the case of CC(C)c1ccc2c(c1)c(SC(C)(C)C)c(CC(C)(C)C(=O)O)n2Cc1ccc(Cl)cc1 [MK-886, reference compound], the “Reference control, % inhibition at indic. conc.” value is listed as “MK-886 (10 μM), 83 ± 1%”.
